{
  "source": "patent US20230241187A1",
  "key": {"[1]": {"target": "CI-MPR on rat L6 myoblasts (rat)", "assay": "cell-based or functional assay"}, "[2]": {"target": "insulin receptor (IR)", "assay": "competition ELISA, plate-bound Insulin-R, 20 nM insulin-biotin, competitor 125 nM, average"}, "[3]": {"target": "insulin receptor (IR)", "assay": "competition ELISA, plate-bound Insulin-R, 20 nM insulin-biotin, competitor 250 nM, average"}, "[4]": {"target": "insulin receptor (IR)", "assay": "competition ELISA, plate-bound Insulin-R, 20 nM insulin-biotin, competitor 500 nM, average"}, "[5]": {"target": "insulin receptor (IR)", "assay": "competition ELISA, plate-bound Insulin-R, 20 nM insulin-biotin, competitor 1000 nM, average"}, "[6]": {"target": "insulin receptor (IR)", "assay": "competition ELISA, plate-bound Insulin-R, 20 nM insulin-biotin, competitor 2000 nM, average"}, "[7]": {"target": "insulin receptor (IR)", "assay": "competition ELISA, plate-bound Insulin-R, 20 nM insulin-biotin, competitor 4000 nM, average"}, "[8]": {"target": "insulin receptor (IR)", "assay": "competition ELISA, plate-bound Insulin-R, 20 nM insulin-biotin, competitor 62.5 nM, average"}, "[9]": {"target": "insulin receptor (IR)", "assay": "competition ELISA, plate-bound Insulin-R, 20 nM insulin-biotin, competitor 31.25 nM, average"}, "[10]": {"target": "insulin receptor (IR)", "assay": "competition ELISA, plate-bound Insulin-R, 20 nM insulin-biotin, competitor 15.625 nM, average"}, "[11]": {"target": "insulin receptor (IR)", "assay": "competition ELISA, plate-bound Insulin-R, 20 nM insulin-biotin, competitor 7.8125 nM, average"}, "[12]": {"target": "insulin receptor (IR)", "assay": "competition ELISA, plate-bound Insulin-R, 20 nM insulin-biotin, competitor 125 nM, replicate 1"}, "[13]": {"target": "insulin receptor (IR)", "assay": "competition ELISA, plate-bound Insulin-R, 20 nM insulin-biotin, competitor 125 nM, replicate 2"}, "[14]": {"target": "insulin receptor (IR)", "assay": "competition ELISA, plate-bound Insulin-R, 20 nM insulin-biotin, competitor 250 nM, replicate 1"}, "[15]": {"target": "insulin receptor (IR)", "assay": "competition ELISA, plate-bound Insulin-R, 20 nM insulin-biotin, competitor 250 nM, replicate 2"}, "[16]": {"target": "insulin receptor (IR)", "assay": "competition ELISA, plate-bound Insulin-R, 20 nM insulin-biotin, competitor 3.90625 nM, average"}, "[17]": {"target": "insulin receptor (IR)", "assay": "competition ELISA, plate-bound Insulin-R, 20 nM insulin-biotin, competitor 500 nM, replicate 1"}, "[18]": {"target": "insulin receptor (IR)", "assay": "competition ELISA, plate-bound Insulin-R, 20 nM insulin-biotin, competitor 500 nM, replicate 2"}, "[19]": {"target": "insulin receptor (IR)", "assay": "competition ELISA, plate-bound Insulin-R, 20 nM insulin-biotin, competitor 1000 nM, replicate 1"}, "[20]": {"target": "insulin receptor (IR)", "assay": "competition ELISA, plate-bound Insulin-R, 20 nM insulin-biotin, competitor 1000 nM, replicate 2"}, "[21]": {"target": "insulin receptor (IR)", "assay": "competition ELISA, plate-bound Insulin-R, 20 nM insulin-biotin, competitor 2000 nM, replicate 1"}, "[22]": {"target": "insulin receptor (IR)", "assay": "competition ELISA, plate-bound Insulin-R, 20 nM insulin-biotin, competitor 2000 nM, replicate 2"}, "[23]": {"target": "insulin receptor (IR)", "assay": "competition ELISA, plate-bound Insulin-R, 20 nM insulin-biotin, competitor 4000 nM, replicate 1"}, "[24]": {"target": "insulin receptor (IR)", "assay": "competition ELISA, plate-bound Insulin-R, 20 nM insulin-biotin, competitor 4000 nM, replicate 2"}, "[25]": {"target": "insulin receptor (IR)", "assay": "competition ELISA, plate-bound Insulin-R, 20 nM insulin-biotin, competitor 62.5 nM, replicate 1"}, "[26]": {"target": "insulin receptor (IR)", "assay": "competition ELISA, plate-bound Insulin-R, 20 nM insulin-biotin, competitor 62.5 nM, replicate 2"}, "[27]": {"target": "insulin receptor (IR)", "assay": "competition ELISA, plate-bound Insulin-R, 20 nM insulin-biotin, competitor 31.25 nM, replicate 1"}, "[28]": {"target": "insulin receptor (IR)", "assay": "competition ELISA, plate-bound Insulin-R, 20 nM insulin-biotin, competitor 31.25 nM, replicate 2"}, "[29]": {"target": "insulin receptor (IR)", "assay": "competition ELISA, plate-bound Insulin-R, 20 nM insulin-biotin, competitor 15.625 nM, replicate 1"}, "[30]": {"target": "insulin receptor (IR)", "assay": "competition ELISA, plate-bound Insulin-R, 20 nM insulin-biotin, competitor 15.625 nM, replicate 2"}, "[31]": {"target": "insulin receptor (IR)", "assay": "competition ELISA, plate-bound Insulin-R, 20 nM insulin-biotin, competitor 7.8125 nM, replicate 1"}, "[32]": {"target": "insulin receptor (IR)", "assay": "competition ELISA, plate-bound Insulin-R, 20 nM insulin-biotin, competitor 7.8125 nM, replicate 2"}, "[33]": {"target": "insulin receptor (IR)", "assay": "competition ELISA, plate-bound Insulin-R, 20 nM insulin-biotin, competitor 3.90625 nM, replicate 1"}, "[34]": {"target": "insulin receptor (IR)", "assay": "competition ELISA, plate-bound Insulin-R, 20 nM insulin-biotin, competitor 3.90625 nM, replicate 2"}},
  "data": [
    {"substance": "ZC-701 (GILTΔ2-7-GAA70-952) (from UniProt P10253 70-952) (enzyme)", "values": [
      {"measurement": "Kuptake (uptake into rat L6 myoblasts; partially purified ZC-701)", "setting": "[1]", "result": 5, "unit": "nM"},
      {"measurement": "Kuptake (uptake into rat L6 myoblasts; purified ZC-701)", "setting": "[1]", "result": 2.6, "unit": "nM"},
      {"measurement": "Chemiluminescence Intensity", "setting": "[2]", "result": 1180},
      {"measurement": "Chemiluminescence Intensity", "setting": "[3]", "result": 784},
      {"measurement": "Chemiluminescence Intensity", "setting": "[4]", "result": 744},
      {"measurement": "Chemiluminescence Intensity", "setting": "[5]", "result": 504},
      {"measurement": "Chemiluminescence Intensity", "setting": "[6]", "result": 358},
      {"measurement": "Chemiluminescence Intensity", "setting": "[7]", "result": 220},
      {"measurement": "Chemiluminescence Intensity", "setting": "[8]", "result": 1070},
      {"measurement": "Chemiluminescence Intensity", "setting": "[9]", "result": 1110},
      {"measurement": "Chemiluminescence Intensity", "setting": "[10]", "result": 1470},
      {"measurement": "Chemiluminescence Intensity", "setting": "[11]", "result": 1180},
      {"measurement": "Chemiluminescence Intensity", "setting": "[12]", "result": 1280},
      {"measurement": "Chemiluminescence Intensity", "setting": "[13]", "result": 1070},
      {"measurement": "Chemiluminescence Intensity", "setting": "[14]", "result": 800},
      {"measurement": "Chemiluminescence Intensity", "setting": "[15]", "result": 767},
      {"measurement": "Chemiluminescence Intensity", "setting": "[16]", "result": 1340},
      {"measurement": "Chemiluminescence Intensity", "setting": "[17]", "result": 715},
      {"measurement": "Chemiluminescence Intensity", "setting": "[18]", "result": 774},
      {"measurement": "Chemiluminescence Intensity", "setting": "[19]", "result": 526},
      {"measurement": "Chemiluminescence Intensity", "setting": "[20]", "result": 483},
      {"measurement": "Chemiluminescence Intensity", "setting": "[21]", "result": 387},
      {"measurement": "Chemiluminescence Intensity", "setting": "[22]", "result": 329},
      {"measurement": "Chemiluminescence Intensity", "setting": "[23]", "result": 191},
      {"measurement": "Chemiluminescence Intensity", "setting": "[24]", "result": 250},
      {"measurement": "Chemiluminescence Intensity", "setting": "[25]", "result": 1120},
      {"measurement": "Chemiluminescence Intensity", "setting": "[26]", "result": 1024},
      {"measurement": "Chemiluminescence Intensity", "setting": "[27]", "result": 1250},
      {"measurement": "Chemiluminescence Intensity", "setting": "[28]", "result": 968},
      {"measurement": "Chemiluminescence Intensity", "setting": "[29]", "result": 1470},
      {"measurement": "Chemiluminescence Intensity", "setting": "[30]", "result": 1470},
      {"measurement": "Chemiluminescence Intensity", "setting": "[31]", "result": 1240},
      {"measurement": "Chemiluminescence Intensity", "setting": "[32]", "result": 1120},
      {"measurement": "Chemiluminescence Intensity", "setting": "[33]", "result": 1450},
      {"measurement": "Chemiluminescence Intensity", "setting": "[34]", "result": 1230}
    ]}
  ]
}
